# Binding of CDR-mutated scFvs to a peptide of the spike HR2 region

Target: peptide PDVDLGDISGINAS, taken from heptad repeat 2 (HR2) of SARS-CoV-2 spike.

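The parent was found by panning a naive human phage display library on the peptide. In library AAYL50, one, two or three CDR residues were substituted; doubles and triples were drawn at random. The assay is AlphaSeq: two haploid yeast populations carry antibody and antigen on their surface. The frequency of each diploid, read from paired DNA barcodes, reflects how well the two displayed proteins bind. A regression on co-assayed BCL2-family reference pairs converts the normalised counts of each replicate to an apparent Kd. Mating was done three times.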

Each scFv is VH, a 15-residue (Gly4Ser)3 linker, VL, as in the parent Ab-14, and differs from it in the CDRs of the light chain only.
VH: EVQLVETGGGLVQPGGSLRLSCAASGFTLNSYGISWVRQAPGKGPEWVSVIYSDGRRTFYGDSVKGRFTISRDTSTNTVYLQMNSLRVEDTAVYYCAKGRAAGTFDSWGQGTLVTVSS
VL: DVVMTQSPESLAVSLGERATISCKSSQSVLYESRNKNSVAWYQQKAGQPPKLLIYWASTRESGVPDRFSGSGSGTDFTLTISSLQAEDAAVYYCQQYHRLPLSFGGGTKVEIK

The parent's light chain CDRs are KSSQSVLYESRNKNSVA, WASTRES, QQYHRLPLS; each variant's own CDRs replace them letter for letter. Values are apparent Kd, the geometric mean of the replicates that gave a signal; lower means stronger binding. A pair that was not seen in any replicate is written "not detected"; this usually means weak binding, but a binder can also be missed. The list is sorted by this average, lowest first, undetected variants last. Empty control strains, which show no peptide, gave a signal in 18% of pairings with library AAYL50; the median was 15 µM and 95% of these signals were weaker than 970 nM. No background was subtracted. For each scFv, signals with the empty controls are counted beside the result.

Kd (apparent),seen in,control signals,CDR-L1,CDR-L2,CDR-L3
280 pM,3/3,1/9,KSLQSVLYESRNKNSVA,HASTRED,QQYHRLPLS
1.4 nM,3/3,3/9,KSSQSVLYERRNKNSIA,WASTREE,QQYHRLPLS
1.5 nM,3/3,0/9,KSSQSVLYESRNKNSVA,WADTREY,QQHHRLPLS
1.7 nM,3/3,0/9,KSSQSVFYEERNKNSVA,WASTRES,QQYKRLPLS
2.0 nM,3/3,3/9,KSSQSVLYESRNKESVA,NASTRES,QQYHVLPLS
5.8 nM,3/3,1/9,KSSQSVLYKSRNNNSVA,HASTRES,QQYHRLPLS
5.9 nM,3/3,0/9,KSSQSVLYESRNKTSVA,NKSTRES,QQYHRLPLS
9.6 nM,3/3,2/9,KSSQSVLYESRNKNSVA,WASTRES,QQYHNLKES
11 nM,3/3,1/9,KSSQSVLYESRNKNPVA,WASTRES,QQYHRQPVS
11 nM,3/3,0/9,KSSQQVLYESRNKNSVA,WANTRER,QQYHRLPLS
11 nM,3/3,0/9,KSSQRVLYESRNKNSVA,WGSTRES,QQYHCLPLS
18 nM,3/3,5/9,LSSQSVLYESRNKNSVA,WASTREI,QQYHRLPLG
29 nM,3/3,0/9,KSGQSVLNESRNKNSVA,WASTRES,QQYHRLPLQ
32 nM,3/3,1/9,KSSQSVPYVSRNKNSVA,WASTREI,QQYHRLPLS
52 nM,3/3,8/9,KSHQHVLYESDNKNSVA,WASTRES,QQYHRLPLS
120 nM,3/3,1/9,TSSQSLLYERRNKNSVA,WASTRES,QQYHRLPLS
140 nM,3/3,2/9,KSSISVLYEYRNKCSVA,WASTRES,QQYHRLPLS
300 nM,3/3,3/9,KSSQSVLCESGNKNSVA,WNSTRES,QQYHRLPLS
340 nM,3/3,1/9,KSSQSVLYQSRNKNSVA,WASVRES,QQYYRLPLS
370 nM,3/3,2/9,HSSQSVLYESRNKTNVA,WASTRES,QQYHRLPLS
520 nM,1/3,1/9,VSSQSVMYESRNKNSVA,WASTRES,QQYHRLNLS
590 nM,3/3,0/9,KSTQSVLYESTNKNSVA,WASTRES,PQYHRLPLS
980 nM,3/3,3/9,GSSQSVLYESQNKNSVA,WDSTRES,QQYHRLPLS
1.2 µM,1/3,2/9,KSSQSVLYHSCNKNSVA,WASTRES,MQYHRLPLS
1.3 µM,3/3,2/9,KSSQYVLYESRNKESVA,WASTRES,QQYHRLPLY
2.7 µM,1/3,3/9,KSSQSVLYELRNKNSVA,MAFTRES,QQYHRLPLS
3.3 µM,2/3,1/9,KSSQYVLYESRNKNSVA,WAYTRES,QQYLRLPLS
4.0 µM,3/3,1/9,KSSQSVLYESRNKESVA,CASWRES,QQYHRLPLS
5.1 µM,1/3,1/9,CSSQSVLYESRNKNSVA,WASPRES,QQYHTLPLS
5.2 µM,1/3,2/9,KSSQSVLYESRNKNSVA,IASTRES,PQYHRLGLS
5.3 µM,2/3,1/9,KSSQWVLYEERNKNSVA,WADTRES,QQYHRLPLS
7.0 µM,2/3,4/9,KSSQSVLYESRNKNSWA,WASTRES,NQYHGLPLS
7.9 µM,2/3,4/9,KSSQSDLYEYRNKNSVL,WASTRES,QQYHRLPLS
8.4 µM,3/3,3/9,KSSQSVLYESRRKNSVA,WASTRES,QQYQGLPLS
11 µM,2/3,2/9,MSSDSVLYESRNKNSVA,WASTRES,QVYHRLPLS
15 µM,2/3,3/9,KSSQQVLYESRNKTSVA,WASTREN,QQYHRLPLS
17 µM,3/3,2/9,NSSQVVLYESRNKHSVA,WASTRES,QQYHRLPLS
18 µM,1/3,1/9,KRSIMVLYESRNKNSVA,WASTRES,QQYHRLPLS
21 µM,1/3,1/9,KSPQSVLYESRNKNSVM,WASTRES,LQYHRLPLS
26 µM,2/3,4/9,KSSQSVRYESRFKNSVW,WASTRES,QQYHRLPLS
35 µM,1/3,2/9,KRSQSVTYESRNKNSVA,WASTQES,QQYHRLPLS
44 µM,1/3,3/9,VSSQSVLYESRVKNSVA,WFSTRES,QQYHRLPLS
57 µM,1/3,3/9,ASSQSVLYESRNKNSVN,WASTRES,QAYHRLPLS
65 µM,2/3,2/9,KSSQSVLYESRNKNSVI,GASTRES,QQYFRLPLS
120 µM,3/3,3/9,KSSQSVLYESRNKNSLA,WASTRES,MQYHRKPLS
140 µM,2/3,2/9,KSSQSVLYNSRNNNSVA,WASTRES,QTYHRLPLS
140 µM,2/3,3/9,KSSQSVLYESRNKNSDA,LASTRES,EQYHRLPLS
370 µM,1/3,2/9,KSSQKVLYESRNCNSVA,WASTRES,QQYHRLNLS
not detected,0/3,0/9,KSSQSVLYESRNKNSVA,YASTRES,QQYVRLRLS
not detected,0/3,2/9,KSSQSVLYESRNKYSVA,WASPRES,QPYHRLPLS
not detected,0/3,2/9,FSSQSVLYESRNFNSSA,WASTRES,QQYHRLPLS
not detected,0/3,0/9,KSRQSVLYESRNKNSVA,WASTRES,QQYVRLPLS
not detected,0/3,3/9,KSSQSVLYTSRVKNSVA,WASTRES,QQWHRLPLS
not detected,0/3,0/9,KSSQSVLYESRNKNSCG,KASTRES,QQYHRLPLS
not detected,0/3,0/9,KSSQSVSYESRNKNSMA,WASTRES,QQYHRLPLS
not detected,0/3,0/9,KSIQSVLYESRQKNSVA,WFSTRES,QQYHRLPLS
not detected,0/3,1/9,KSSQSVLYESRNQNSVA,WASTRGS,EQYHRLPLS
not detected,0/3,1/9,KSSQSVCYDSRNKNSKA,WASTRES,QQYHRLPLS
not detected,0/3,0/9,KSSQSVLMESRNKNSKA,WASGRES,QQYHRLPLS
not detected,0/3,0/9,KSYQSVLYESRNKNSVA,WASTRES,QQYHRLPSS
not detected,0/3,0/9,KSSQSVLYESRNKISVA,WASTRES,FQYHTLPLS
not detected,0/3,0/9,PSSQSVLYESRNKNSVA,WASTREA,QQYHALPLS
not detected,0/3,0/9,KSSHSVLYESRNKNSVA,WKSTCES,QQYHRLPLS
not detected,0/3,0/9,KSRQPVLYESRNKNSVA,WASTRES,QQYHCLPLS
not detected,0/3,2/9,KSSDSVLYDSRNKNSVA,WWSTRES,QQYHRLPLS
not detected,0/3,3/9,KSSQSVLDESRNKFSVA,WASTRES,QQGHRLPLS
not detected,0/3,0/9,KSSQYVLYESRNKNSVA,WASTRES,QQYWRLPPS
not detected,0/3,3/9,KSSQSVLYESRNKNSVA,WASTRES,QHYHGAPLS
not detected,0/3,0/9,KSSQSVLYESRNKNSVA,WAYTRES,QQYHRNPLF
not detected,0/3,0/9,KSGQSVLYWSRNKNSVA,WASTRKS,QQYHRLPLS
not detected,0/3,2/9,KSSKSVLYESRNKNSVA,PASTRES,QQYHRLPLS

Reference: Engelhart et al. 2022, doi:10.1038/s41597-022-01779-4. File: FLAb, binding data.